In experiment [1] the target is cloned human δ opioid receptor expressed in CHO cells (Homo sapiens, UniProt P41143). Kind of experiment: [35S]GTPγS binding assay, inhibition of DPDPE-stimulated binding. The class given is biochemical.
In experiment [2] the target is cloned human μ opioid receptor expressed in CHO cells (Homo sapiens, UniProt P35372). Kind of experiment: [35S]GTPγS binding assay, inhibition of DAMGO-stimulated binding. It counts as biochemical.

Chains of the proteins cited; added tags and fusions are not shown.
UniProt P35372, whole entry: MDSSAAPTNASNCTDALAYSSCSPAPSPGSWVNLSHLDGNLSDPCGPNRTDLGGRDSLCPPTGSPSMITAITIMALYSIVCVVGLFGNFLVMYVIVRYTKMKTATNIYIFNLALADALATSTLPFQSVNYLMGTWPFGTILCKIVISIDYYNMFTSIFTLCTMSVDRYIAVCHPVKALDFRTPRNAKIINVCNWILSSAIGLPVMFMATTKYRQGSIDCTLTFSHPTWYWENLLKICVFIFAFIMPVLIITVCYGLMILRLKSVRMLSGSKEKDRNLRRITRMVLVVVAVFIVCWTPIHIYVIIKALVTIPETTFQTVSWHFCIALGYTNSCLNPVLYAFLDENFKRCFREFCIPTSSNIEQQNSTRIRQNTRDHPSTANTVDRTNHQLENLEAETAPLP

Where two headings read alike, the source gives them in different places.

For `CC(C)[C@@H](CN1CC[C@@](C)(c2cccc(O)c2)[C@@H](C)C1)NC(=O)[C@H]1Cc2ccc(O)cc2C[S+]1[O-]` (single isomer, unassigned) [Compound 10a], the Kb in experiment [1] (δ, DPDPE Ke) is 208 ± 55 nM.

`CC(C)[C@@H](CN1CC[C@@](C)(c2cccc(O)c2)[C@@H](C)C1)NC(=O)[C@H]1Cc2ccc(O)cc2C[S+]1[O-]` (single isomer, unassigned) [Compound 10b] registered a Kb in experiment [1] (δ, DPDPE Ke) of 61 ± 11 nM.

In the case of `CC(C)[C@@H](CN1CC[C@@](C)(c2cccc(O)c2)[C@@H](C)C1)NC(=O)c1ccc2cc(O)ccc2c1` [Compound 6], the Kb in experiment [2] is 2.53 ± 0.34 nM; in experiment [1], 219 ± 41 nM.

`CC(C)[C@@H](CN1CC[C@@](C)(c2cccc(O)c2)[C@@H](C)C1)NC(=O)[C@@H]1CCc2cc(O)ccc2C1` [Compound 7a, 6-Hydroxy-1,2,3,4-tetrahydro-naphthalene-2(+)-carboxylic acid-{1-[4-(3-hydroxyphenyl)-(3R,4R)-trans-dimethyl-piperidinylmethyl]-(2S)-methylpropyl}amide] gave a Kb in experiment [1] (δ, DPDPE Ke) of 44.8 ± 7.7 nM.

As for `CC(C)[C@@H](CN1CC[C@@](C)(c2cccc(O)c2)[C@@H](C)C1)NC(=O)[C@H]1CCc2cc(O)ccc2C1` [Compound 7b, 6-Hydroxy-1,2,3,4-tetrahydro-naphthalene-2(-)-carboxylic acid-{1-[4-(3-hydroxyphenyl)-(3R,4R)-trans-dimethyl-piperidinylmethyl]-(2S)-methylpropyl}amide], the Kb in experiment [1] (δ, DPDPE Ke) is 205 ± 59 nM.

Compound `CC(C)[C@@H](CN1CC[C@@](C)(c2cccc(O)c2)[C@@H](C)C1)NC(=O)[C@H]1Cc2ccc(O)cc2CO1` [Compound 8a] showed a Kb in experiment [1] (δ, DPDPE Ke) of 197 ± 64 nM.

With `CC(C)[C@@H](CN1CC[C@@](C)(c2cccc(O)c2)[C@@H](C)C1)NC(=O)[C@@H]1Cc2ccc(O)cc2CO1` [Compound 8b, 7-Hydroxy-3,4-dihydro-1H-isochromene-3-carboxylic acid-{1-[4-(3-hydroxyphenyl)-(3R,4R)-trans-dimethyl-piperidinylmethyl]-(2S)-methylpropyl}amide], in experiment [1] (δ, DPDPE Ke), the Kb came out at 134 ± 26 nM.

Consider `CC(C)[C@@H](CN1CC[C@@](C)(c2cccc(O)c2)[C@@H](C)C1)NC(=O)[C@H]1Cc2ccc(O)cc2CS1` [Compound 9a, 7-Hydroxyisothiochroman-3(+)-carboxylic acid-{1-[4-(3-hydroxyphenyl)-(3R,4R)-trans-dimethyl-piperidinylmethyl]-(2S)-methylpropyl}amide], for which the Kb in experiment [1] (δ, DPDPE Ke) was found to be 395 ± 122 nM.

As to `CC(C)[C@@H](CN1CC[C@@](C)(c2cccc(O)c2)[C@@H](C)C1)NC(=O)[C@@H]1Cc2ccc(O)cc2CS1` [Compound 9b, 7-Hydroxyisothiochroman-3(-)-carboxylic acid-{1-[4-(3-hydroxyphenyl)-(3R,4R)-trans-dimethyl-piperidinylmethyl]-(2S)-methylpropyl}amide], the Kb in experiment [2] was 13.4 ± 2.9 nM; in experiment [1] it was 182 ± 48 nM.

The record behind these values is article PMC2912403 (Journal of medicinal chemistry, 2010).
